Source: BindingDB's records for 21438612

By UniProt entry, the sequences of proteins in these tests, tags left out. Residues count along the entry.
UniProt P06276, 29-602 limits assumed: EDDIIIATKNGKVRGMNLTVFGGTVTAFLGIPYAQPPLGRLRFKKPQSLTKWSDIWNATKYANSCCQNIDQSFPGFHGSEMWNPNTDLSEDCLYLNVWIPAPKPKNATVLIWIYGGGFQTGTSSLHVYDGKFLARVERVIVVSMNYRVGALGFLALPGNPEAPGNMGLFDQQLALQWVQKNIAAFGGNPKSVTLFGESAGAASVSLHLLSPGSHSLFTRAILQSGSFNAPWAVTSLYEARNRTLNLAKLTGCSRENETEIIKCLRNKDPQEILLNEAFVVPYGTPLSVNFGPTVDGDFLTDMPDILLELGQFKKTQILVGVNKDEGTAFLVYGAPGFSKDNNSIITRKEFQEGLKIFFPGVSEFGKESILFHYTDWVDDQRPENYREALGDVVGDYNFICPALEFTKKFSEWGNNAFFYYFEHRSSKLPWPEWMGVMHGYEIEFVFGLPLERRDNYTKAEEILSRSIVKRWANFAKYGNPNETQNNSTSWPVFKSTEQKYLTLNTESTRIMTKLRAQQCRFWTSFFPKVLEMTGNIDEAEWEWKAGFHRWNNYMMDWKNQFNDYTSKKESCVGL

Biological target: Cholinesterase (Homo sapiens, UniProt P06276)
Assay: Inhibition of BuChE using butyrylthiocholine as substrate after 20 mins by Ellman's method

Compound: CCCCN=C(CN=O)N(C)C
- IC50: > 300 µM
